According to the NIST ThermoML archive (doi:10.1016/j.jct.2012.01.019):

Assay: activity coefficient (dimensionless); of the first substance listed, at infinite dilution; xn = mol fraction of the nth substance listed
Conditions: 101 kPa, Liquid, Chromatography, x1 = 0

CCCCOCCCC [dibutyl ether] + COCC[N+]1(C)CCCCC1.O=S(=O)([N-]S(=O)(=O)C(F)(F)F)C(F)(F)F
Conditions	activity coefficient
318.15 K	13.9
328.15 K	13.2
338.15 K	12.5
348.15 K	11.8
358.15 K	11.3
368.15 K	10.9
